Reference: patent publication US20260335307A1, “ANTIMICROBIAL COMBINATIONS” (Helperby Therapeutics Limited, priority 2022, published 2026)

Test system: KPC (Klebsiella pneumoniae carbapenemase) producing K. pneumoniae
Experiment: Chequerboard assay (percentage kill from OD600, MIC and FIC) of 4-mer combination against KPC producing K. pneumoniae
Assay type: cell-based
Settings: Example 4, backbone ceftazidime + colistin; drug alone
Excerpt: Synergy is not predictable or expected when two or more actives are used in combination. […] One of the ways to assess whether synergy has been observed is to use the “chequerboard” technique. This is a well-accepted method that leads to the generation of a value called the fractional inhibitory concentration index (FICI). Orhan et al., J. Clin. Microbiol. 2005, 43(1):140 describes the chequerboard method and analysis in the paragraph bridging pages 140-141, and explains that the FICI value is a ratio of the sum of the MIC (Minimum Inhibitory Concentration) level of each individual component alone and in the mixture.
FICI or fractional inhibitory concentration index is the sum of the FICs of each antimicrobial when used in combination. […]
In this method, two antibiotics were “fixed” as part of a backbone whilst the two other antibiotics were varied over a doubling concentration scale beginning at the MIC (×1) for the effective dose in monotherapy against the organism being tested. The ΣFIC was then calculated as shown below. […]
Synergy can be expressed as “ΣFIC≤0.25×n”. […]
The bacteria were obtained from Ninewells Hospital and Medical School in Dundee, Scotland. […] The bacteria were measured for OD600 and readings of <0.25 were returned to the incubator. […]

## CC(C)(O/N=C(\C(=O)N[C@@H]1C(=O)N2C(C(=O)[O-])=C(C[n+]3ccccc3)CS[C@H]12)c1csc(N)n1)C(=O)O [Ceftazidime]
  MIC Monotherapy (X): 32
